Test results reported in patent US9657003B2, “Androgen receptor modulating compounds” (ORION CORPORATION, priority 2009, dated 2017).

Molecular target: rat androgen receptor (Rattus norvegicus (Rat), UniProt P15207)
Test: Androgen receptor binding assay (competition binding with [3H]mibolerone)
Conditions: cytosolic lysates from ventral prostates of castrated rats; 1 nM [3H]mibolerone; Cheng and Prusoff; read-out: AR binding affinity Ki

Cc1cc(-c2ccn(CCNC(=O)c3cc(-c4cccnc4)n[nH]3)n2)ccc1C#N [Example 53, N-(2-(3-(4-cyano-3-methylphenyl)-1H-pyrazol-1-yl)ethyl)-3-(pyridin-3-yl)-1H-pyrazole-5-carboxamide] was tested. Which Ki did it give?
Its Ki is 18 nM.
